Experimental data from ChEMBL document CHEMBL4354843, “Structure-Based Design of a Potent and Selective Covalent Inhibitor for SRC Kinase That Targets a P-Loop Cysteine” (J Med Chem, 2020).

Sequences of proteins named here, by UniProt entry; tags and fusion partners are left off.
UniProt P07947, whole entry, looked up: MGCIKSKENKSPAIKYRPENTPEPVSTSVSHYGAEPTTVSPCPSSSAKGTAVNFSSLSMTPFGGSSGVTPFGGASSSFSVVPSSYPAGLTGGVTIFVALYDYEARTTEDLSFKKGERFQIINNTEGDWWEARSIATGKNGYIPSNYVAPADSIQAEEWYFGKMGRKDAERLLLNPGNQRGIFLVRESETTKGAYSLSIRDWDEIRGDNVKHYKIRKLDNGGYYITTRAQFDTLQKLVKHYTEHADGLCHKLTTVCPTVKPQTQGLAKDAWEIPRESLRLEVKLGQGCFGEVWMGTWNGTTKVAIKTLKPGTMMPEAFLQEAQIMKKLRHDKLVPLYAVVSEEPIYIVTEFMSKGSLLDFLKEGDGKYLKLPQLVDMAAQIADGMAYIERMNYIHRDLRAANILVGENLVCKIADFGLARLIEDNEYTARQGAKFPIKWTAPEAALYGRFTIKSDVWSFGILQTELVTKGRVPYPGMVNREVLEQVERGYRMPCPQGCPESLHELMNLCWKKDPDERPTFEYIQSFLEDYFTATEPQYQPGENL

Columns and labels:
[1] = molecular target: Tyrosine-protein kinase Yes (Homo sapiens) (UniProt P07947); settings: HCC827, 1 uM
[2] = molecular target: Tyrosine-protein kinase Yes (Homo sapiens) (UniProt P07947); settings: NCI-H1975, 1 uM

`C=CC(=O)Nc1ccccc1Nc1nc(Nc2ccc(N3CCN(C)CC3)cc2)ncc1C(=O)Nc1c(C)cccc1Cl` was tested, and the inhibition [1] was “Active” and the inhibition [2] was “Active”.

Calls of active or inactive are those of the source. The calls are words filed in the database; no cut-off is given here.
